Earlier results as cited in patent US10653700B2, “Composition comprising a therapeutic agent and a respiratory stimulant and methods for the use thereof” (priority 2015, dated 2020).

Columns and labels:
[1] = test system: opioid receptors; details: cited from earlier work
[2] = in vivo; cited from earlier work

COc1ccc2c3c1O[C@H]1C(=O)CC[C@H]4[C@@H](C2)N(C)CC[C@]314 [hydrocodone]
affinity to δ-opioid receptors compared with μ-opioid receptors [1]: six times lesser affinity | potency at binding to receptors relative to morphine [1]: one-tenth as potent as morphine | potency in analgesic properties relative to morphine [2]: 59% | relative milligram strength of hydrocodone to codeine [2]: 6 fold
